Results: USRE49825E1, “Piperidinyl nociceptin receptor compounds” (Astraea Therapeutics, LLC, priority 2015, dated 2024)
Where two headings read alike, the source gives them in different places.

Experiments:
mu opioid receptor = mu opioid receptor (Homo sapiens, UniProt P35372); assay: Radioligand binding assay, [3H]DAMGO, membranes of CHO cells transfected with human mu opioid receptor
[1] = biological target: nociceptin (NOP) receptor (Homo sapiens, UniProt P41146); assay: Radioligand binding assay, [3H]N/OFQ, membranes of CHO cells transfected with human NOP receptor
kappa opioid receptor = kappa opioid receptor (Homo sapiens, UniProt P41145); assay: Radioligand binding assay, [3H]U69593, membranes of CHO cells transfected with human kappa opioid receptor
[2] = read-out: Receptor Binding Ki (nM) μ, Compounds of Formula (II), CHO cell membranes
[3] = read-out: Receptor Binding Ki (nM) NOP, Compounds of Formula (II), CHO cell membranes
[4] = read-out: Receptor Binding Ki (nM) κ, Compounds of Formula (II), CHO cell membranes
[5] = read-out: Receptor Binding Ki (nM) μ, Compounds of Formula (III), CHO cell membranes
[6] = read-out: Receptor Binding Ki (nM) NOP, Compounds of Formula (III), CHO cell membranes
[7] = read-out: Receptor Binding Ki (nM) κ, Compounds of Formula (III), CHO cell membranes

Row | Compound | Ki (mu opioid receptor; [2]) | Ki [1, 3] | Ki (kappa opioid receptor; [4]) | Ki (mu opioid receptor; [5]) | Ki [1, 6] | Ki (kappa opioid receptor; [7])
1 | CC(C)[C@H]1CC[C@@H](N2CCC(n3cc(CCCN)c4cc(Cl)ccc43)CC2)CC1 | 15 to 150 nM | 15 to 150 nM | 150 to 5000 nM | – | – | –
2 | CC(C)[C@H]1CC[C@@H](N2CCC(n3cc(CN=[N+]=[N-])c4ccccc43)CC2)CC1 (relative stereo) | 150 to 5000 nM | 15 to 150 nM | 150 to 5000 nM | – | – | –
3 | CC(C)C(N)C(=O)NCc1cc2ccccc2n1C1CCN([C@H]2CC[C@@H](C(C)C)CC2)CC1 (relative stereo) | < 15 nM | < 15 nM | 15 to 150 nM | – | – | –
4 | CC(C)[C@H]1CC[C@@H](N2CCC(n3c(CO)c(C=NO)c4ccccc43)CC2)CC1 | < 15 nM | < 15 nM | 150 to 5000 nM | – | – | –
5 | CC(O)c1cc2ccccc2n1C1CCN([C@H]2CC[C@@H](C(C)C)CC2)CC1 (stereo partly drawn) | 15 to 150 nM | < 15 nM | 15 to 150 nM | – | – | –
6 | CC(C)[C@H]1CC[C@@H](N2CCC(n3c(CO)c(CO)c4ccccc43)CC2)CC1 | 15 to 150 nM | < 15 nM | 15 to 150 nM | – | – | –
7 | CC(C)[C@H]1CC[C@@H](N2CCC(n3c(CN)cc4cc(F)ccc43)CC2)CC1 | < 15 nM | < 15 nM | 15 to 150 nM | – | – | –
8 | CC(C)[C@H]1CC[C@@H](N2CCC(n3cc(CNC(N)=S)c4ccccc43)CC2)CC1 (relative stereo) | 15 to 150 nM | < 15 nM | 150 to 5000 nM | – | – | –
9 | CC(C)[C@H]1CC[C@@H](N2CCC(N3C(=O)C(CC(=O)O)c4ccccc43)CC2)CC1 (stereo partly drawn) | – | – | – | 150 to 5000 nM | 15 to 150 nM | > 5000 nM
10 | CNCc1cc2ccccc2n1C1CCN([C@H]2CC[C@@H](C(C)C)CC2)CC1 (relative stereo) | < 15 nM | < 15 nM | 15 to 150 nM | – | – | –
11 | CNCc1c(CO)c2ccccc2n1C1CCN([C@H]2CC[C@@H](C(C)C)CC2)CC1 | 15 to 150 nM | < 15 nM | 15 to 150 nM | – | – | –
12 | CC(C)[C@H]1CC[C@@H](N2CCC(n3cc(CNC(=O)CNC(=O)OCc4ccccc4)c4ccccc43)CC2)CC1 | 15 to 150 nM | 15 to 150 nM | 150 to 5000 nM | – | – | –
13 | CC(=O)NCc1c(CO)c2ccccc2n1C1CCN([C@H]2CC[C@@H](C(C)C)CC2)CC1 (relative stereo) | 15 to 150 nM | < 15 nM | 150 to 5000 nM | – | – | –
14 | CC(C)[C@H]1CC[C@@H](N2CCC(n3c(CNC(=O)c4ccoc4)cc4ccccc43)CC2)CC1 (relative stereo) | < 15 nM | < 15 nM | 15 to 150 nM | – | – | –
15 | CC(C)C1CCC(N2CCC(n3cc(CNC(N)=NC#N)c4ccccc43)CC2)CC1 (stereo not drawn) | 15 to 150 nM | 15 to 150 nM | 150 to 5000 nM | – | – | –
16 | CCN(CC)CC(=O)NCc1cn(C2CCN([C@H]3CC[C@@H](C(C)C)CC3)CC2)c2ccccc12 | 150 to 5000 nM | 15 to 150 nM | > 5000 nM | – | – | –
17 | CC(C)[C@H]1CC[C@@H](N2CCC(n3c(CNC(=O)C(C)(C)C)cc4ccccc43)CC2)CC1 (relative stereo) | 15 to 150 nM | 15 to 150 nM | 150 to 5000 nM | – | – | –
18 | CNC(=O)NC1C(=O)N(C2CCN([C@H]3CC[C@@H](C(C)C)CC3)CC2)c2ccccc21 (stereo partly drawn) | – | – | – | 150 to 5000 nM | 15 to 150 nM | 150 to 5000 nM
19 | Cc1ccc(S(=O)(=O)NCc2cc3ccccc3n2C2CCN([C@H]3CC[C@@H](C(C)C)CC3)CC2)cc1 (relative stereo) | < 15 nM | 15 to 150 nM | 15 to 150 nM | – | – | –
20 | Cc1ccc2c(c1)cc(CN)n2C1CCN([C@H]2CC[C@@H](C(C)C)CC2)CC1 | 15 to 150 nM | < 15 nM | 15 to 150 nM | – | – | –
21 | CC(C)[C@H]1CC[C@@H](N2CCC(n3c(CNC(=O)OCc4ccccc4)cc4ccccc43)CC2)CC1 | < 15 nM | < 15 nM | 15 to 150 nM | – | – | –
22 | CC(C)[C@H]1CC[C@@H](N2CCC(n3cc(C(N)=O)c4ccccc43)CC2)CC1 (relative stereo) | 150 to 5000 nM | 15 to 150 nM | 150 to 5000 nM | – | – | –
23 | COC(=O)/C=C1\C(=O)N(C2CCN([C@H]3CC[C@@H](C(C)C)CC3)CC2)c2ccccc21 | – | – | – | 150 to 5000 nM | 15 to 150 nM | 150 to 5000 nM

Row | Compound | Ki (mu opioid receptor; [2]) | Ki [1, 3] | Ki (kappa opioid receptor; [4]) | Ki (mu opioid receptor; [5]) | Ki [1, 6] | Ki (kappa opioid receptor; [7])
24 | CC(C)[C@H]1CC[C@@H](N2CCC(n3cc(CCN)c4cc(Cl)ccc43)CC2)CC1 | 15 to 150 nM | 15 to 150 nM | 150 to 5000 nM | – | – | –
25 | CC(C)[C@H]1CC[C@@H](N2CCC(n3cc(CCCN)c4ccccc43)CC2)CC1 | 15 to 150 nM | 15 to 150 nM | 150 to 5000 nM | – | – | –
26 | CC(C)[C@H]1CC[C@@H](N2CCC(n3c(CN(CC4CC4)CC4CC4)cc4ccccc43)CC2)CC1 | 15 to 150 nM | 15 to 150 nM | 15 to 150 nM | – | – | –
27 | CC(C)[C@H]1CC[C@@H](N2CCC(n3c(CNC(=O)OCc4ccccc4)c(CO)c4ccccc43)CC2)CC1 (relative stereo) | < 15 nM | < 15 nM | 15 to 150 nM | – | – | –
28 | CCOC(=O)NCc1c(CO)c2ccccc2n1C1CCN([C@H]2CC[C@@H](C(C)C)CC2)CC1 (relative stereo) | < 15 nM | < 15 nM | 150 to 5000 nM | – | – | –
29 | Cc1ccc2c(c1)cc(CO)n2C1CCN([C@H]2CC[C@@H](C(C)C)CC2)CC1 | 150 to 5000 nM | 150 to 5000 nM | 150 to 5000 nM | – | – | –
30 | CC(C)[C@H]1CC[C@@H](N2CCC(n3c(CNC(=O)OCc4ccccc4)cc4cc(F)ccc43)CC2)CC1 (relative stereo) | 15 to 150 nM | < 15 nM | 15 to 150 nM | – | – | –
31 | CC(C)[C@H]1CC[C@@H](N2CCC(n3cc(CCN)c4cc(F)ccc43)CC2)CC1 | 15 to 150 nM | < 15 nM | 150 to 5000 nM | – | – | –
32 | CC(C)[C@H]1CC[C@@H](N2CCC(N3C(=O)/C(=N\OCCO)c4ccccc43)CC2)CC1 | – | – | – | 150 to 5000 nM | 15 to 150 nM | 15 to 150 nM
33 | CC(C)C(N)C(=O)OCc1cc2ccccc2n1C1CCN([C@H]2CC[C@@H](C(C)C)CC2)CC1 (stereo partly drawn) | < 15 nM | < 15 nM | 15 to 150 nM | – | – | –
34 | CC(C)C1CCC(N2CCC(n3c(CNC(=O)OCc4ccccc4)c(/C=N/O)c4ccccc43)CC2)CC1 (stereo not drawn) | < 15 nM | < 15 nM | 150 to 5000 nM | – | – | –
35 | CONC(=O)CC1C(=O)N(C2CCN([C@H]3CC[C@@H](C(C)C)CC3)CC2)c2ccc(F)cc21 (stereo partly drawn) | – | – | – | > 5000 nM | < 15 nM | 150 to 5000 nM
36 | CC(C)[C@H]1CC[C@@H](N2CCC(n3c(CO)c(C(N)=O)c4ccccc43)CC2)CC1 (relative stereo) | 15 to 150 nM | < 15 nM | 150 to 5000 nM | – | – | –
37 | CC(C)[C@H]1CC[C@@H](N2CCC(n3c(CO)cc4cc(F)ccc43)CC2)CC1 | 15 to 150 nM | < 15 nM | 15 to 150 nM | – | – | –
38 | CC(C)[C@H]1CC[C@@H](N2CCC(n3c(CN)c(CO)c4ccccc43)CC2)CC1 (relative stereo) | 15 to 150 nM | < 15 nM | 15 to 150 nM | – | – | –
39 | CC(C)C1CCC(N2CCC(n3cc(CNC(=NC#N)Oc4ccccc4)c4ccccc43)CC2)CC1 (stereo not drawn) | 150 to 5000 nM | 15 to 150 nM | > 5000 nM | – | – | –
40 | Cc1ccc2c(c1)cc(CNC(=O)OCc1ccccc1)n2C1CCN([C@H]2CC[C@@H](C(C)C)CC2)CC1 | 15 to 150 nM | 150 to 5000 nM | > 5000 nM | – | – | –
41 | CC(C)[C@H]1CC[C@@H](N2CCC(n3c(CCOS(N)(=O)=O)cc4ccccc43)CC2)CC1 | < 15 nM | < 15 nM | 15 to 150 nM | – | – | –
42 | CC(=O)NCc1c(/C=N/O)c2ccccc2n1C1CCN(C2CCC(C(C)C)CC2)CC1 (stereo not drawn) | < 15 nM | < 15 nM | 150 to 5000 nM | – | – | –
43 | CC(C)[C@H]1CC[C@@H](N2CCC(n3c(C(C#N)Nc4ccccc4)cc4ccccc43)CC2)CC1 (stereo partly drawn) | 15 to 150 nM | < 15 nM | 15 to 150 nM | – | – | –
44 | CC(=O)NCCc1cn(C2CCN([C@H]3CC[C@@H](C(C)C)CC3)CC2)c2ccccc12 | 150 to 5000 nM | 15 to 150 nM | 150 to 5000 nM | – | – | –
45 | CC(C)C1CCC(N2CCC(n3c(/C=N/O)cc4ccccc43)CC2)CC1 (stereo not drawn) | 15 to 150 nM | < 15 nM | 15 to 150 nM | – | – | –
46 | CC(C)[C@H]1CC[C@@H](N2CCC(n3c(-c4ccc(Cl)cc4)cc4ccccc43)CC2)CC1 (relative stereo) | 150 to 5000 nM | 150 to 5000 nM | > 5000 nM | – | – | –
